Source: PMC10870044, “The Interplay Between HIF‐1α and EZH2 in Lung Cancer and Dual‐Targeted Drug Therapy” (Advanced Science, 2023)

Test system: HIF‐1α
Assay: Western blot of HIF-1α after EZH2 inhibitors
Type: cell-based
Conditions: compared to the control group

With `CCN(c1cc(-c2ccc(CN3CCOCC3)cc2)cc(C(=O)NCc2c(C)cc(C)[nH]c2=O)c1C)C1CCOCC1` [EPZ6438] the “HIF‐1α protein levels” value was “significantly higher levels of HIF‐1α protein”.
